# Assay results from patent US20260265262A1, “CDK2 INHIBITORS AND METHODS OF USING THE SAME” (Cedilla Therapeutics, Inc., priority 2022, published 2026).
# Legend:
# [1] = biological target: T1, CDK2/Cyclin E1 (Homo sapiens, UniProt P24941); test: CDK2/Cyclin E1 Caliper LabChip EZ Reader mobility shift assay; settings: read-out: Caliper Assay (CDK2/CCNE1): IC50; 2.5 nM CDK2/Cyclin E1, 100 μM ATP, 1.5 μM fluorescent peptide, 30 min pre-incubation
# Protocol: Inhibition of CDK2/Cyclin E1 activity in the presence of compounds of the present disclosure was evaluated using a CaliperLabChip® EZ Reader mobility shift assay. In the assay, CDK2/Cyclin E1 (Eurofins, 14-475) catalyzed the phosphorylation of a fluorescently tagged peptide 5-FAM-QSPKKG-CONH2 (PerkinEliner, FL Peptide 18) which induced a difference in capillary electrophoresis mobility. The peptide substrate and product were measured, and the conversion ratio was used to determine the inhibition (as % activity and IC50 values) of CDK2/Cyclin E1. Reactions contained 50 mM HEPES pH 7.5, 10 mM MgCl2, 1 mM EDTA, 2 mM DTT, 0.01% Brij35, 0.5 mg/mL BSA, 0.1% DMSO, 2.5 nM CDK2/Cyclin E1, 100 μM ATP, and 1.5 μM fluorescent peptide substrate.
# Dose titrations of inhibitors in 100% DMSO were combined with 3.25 nM CDK2/Cyclin E1 and 130 μM of ATP in reaction buffer. The mixtures were incubated for 30 minutes before the addition of fluorescent peptide substrate to initiate the kinase reaction. The final conditions were 2.5 nM CDK2/Cyclin E1, 100 μM ATP, and 1.5 μM fluorescent peptide. The reactions were stopped after 100 minutes with the addition of EDTA (400 mM final EDTA concentration). The stopped reactions were analyzed on a Caliper LabChip® EZ Reader II. […]
# [2] = test system: Kuramochi cells; test: IncuCyte cell proliferation assay; type: cell-based; settings: read-out: IncuCyte Kuramochi RB-WT: IC50; Kuramochi cells labeled with mApple-H2B, cell count 0 to 72 hours, 20 μM top concentration
# Protocol: IncuCyte® assay was used to measure the effect of disclosed compounds on cell proliferation. Fluorescent microscopy images of cells were taken immediately after compound treatment and 72 hours later. Image analysis software was used to obtain cell counts as a function of compound concentration. Kuramochi cells labeled with mApple-H2B were seeded on 384-well assay-ready plates. Plates were placed in an IncuCyte® (Sartorius) and scanned at 0 and 72 hours. IncuCyte® software was used to count the number of fluorescent nuclei in each well. The fold change in cell count from 0 to 72 hours in wells treated with increasing compounds concentrations (10 pts, 1/2 log dilution, 20 μM top concentration) was normalized to DMSO control wells. The normalized cell counts were fit with dose response curves and a […] was calculated.
# [3] = biological target: T1, CDK2/Cyclin E1; test: ADP-Glo Luminescent Kinase Assay (CDK2/E1-37C); type: biochemical; settings: read-out: ADPGLO (CDK2/E1-37C): IC50; 0.18 nM CDK2/Cyclin E1, 100 μM ATP, 1.5 μM Histone H1, 37° C., 60 min pre-incubation
# Protocol: Inhibition of CDK2/Cyclin E1 activity by the presence of small molecules was evaluated using ADP-Glo Luminescent Kinase Assay (Promega). Activated CDK2/Cyclin E1 was incubated with its substrate Histone H1 (SignalChem H10-54N) in the kinase reaction buffer (100 μM ATP, 50 mM HEPES pH 7.5, 10 mM MgCl2, 1 mM EDTA, 2 mM DTT, 0.01% Brij35, 0.5 mg/mL BSA). Luminescence was recorded with an Envision plate reader (PerkinElmer).
# Dose titrations of inhibitors in 100% DMSO were combined with 0.36 nM CDK2/Cyclin E1 in reaction buffer. The mixtures were incubated for 60 minutes at 37° C. before the addition of ATP and Histone H1 substrate to initiate the kinase reaction. The final conditions were 0.18 nM CDK2/Cyclin E1, 100 μM ATP, and 1.5 μM Histone H1. The reactions were incubated at 37° C. for 90 minutes before being stopped with the addition of ADP-Glo reagent. This mixture was incubated at room temperature for 60 minutes before Kinase Detection Solution is added to generate luminescence. The stopped reactions were analyzed on an Envision plate reader. The conversion ratios were normalized to yield % activity, plotted against compound concentration, and fit to a four-parameter equation to determine the IC50 for each compound.
Compound,IC50 [3] [µM],IC50 [1] [µM],IC50 [2] [µM]
C[C@@H](OCC1(CO)CC=CCC1)[C@H](NC(=O)[C@@H]1CN(C(=O)c2cncs2)CC12CN(C(=O)[C@H]1CC1(C)C)C2)C(=O)N1CCC(C(F)(F)F)CC1 (stereo partly drawn),,< 0.01,0.5 to 5
C[C@@H](OCC12CCC(CC1)OC2)[C@@H](COC1CCNCC1)NC(=O)[C@@H]1CN(C(=O)c2cnn(Cc3ccccc3C(=O)O)c2)CC12CN(C(=O)C1(C(F)(F)F)CC1)C2,0.5 to 5,,> 20
CNC(=O)C(NC(=O)[C@@H]1CN(C(=O)c2cncs2)CC12CN(CC1CCCO1)C2)[C@@H](C)OCC1(CO)CC=CCC1 (stereo partly drawn),,0.1 to 1,> 20

# More lines, main results first:
IC50 [3] [µM],Compound,IC50 [1] [µM],IC50 [2] [µM]
0.5 to 5,C[C@@H](OCC1CCOCC1)[C@H](NC(=O)[C@@H]1CN(C(=O)c2cnn(Cc3ccc(C(F)(F)F)cc3)c2)CC12CN(C(=O)C1(C(F)(F)F)CC1)C2)C(=O)N1CCC2(CC1)COC2,,> 20
< 0.5,C[C@@H](OCC12CCC(CC1)OC2)[C@H](NC(=O)[C@@H]1CN(C(=O)c2cnn(Cc3ccc(C(F)(F)F)cc3)c2)CC12CN(C(=O)C1(C(F)(F)F)CC1)C2)C(=O)N1CCC(c2ccc3c(c2)CCOC3=O)CC1,,0.5 to 5
> 10,C[C@@H](OCC1CCOCC1)[C@H](NC(=O)[C@@H]1CN(C(=O)c2nccnc2O)CC12CN(C(=O)C1(C(F)(F)F)CC1)C2)C(=O)N1CCC2(CC1)CC2,,> 20
